Molecular target: Cholinesterase (Homo sapiens, UniProt P06276)

The chains behind the UniProt entries cited, without tags or fusion partners.
UniProt P06276, whole entry: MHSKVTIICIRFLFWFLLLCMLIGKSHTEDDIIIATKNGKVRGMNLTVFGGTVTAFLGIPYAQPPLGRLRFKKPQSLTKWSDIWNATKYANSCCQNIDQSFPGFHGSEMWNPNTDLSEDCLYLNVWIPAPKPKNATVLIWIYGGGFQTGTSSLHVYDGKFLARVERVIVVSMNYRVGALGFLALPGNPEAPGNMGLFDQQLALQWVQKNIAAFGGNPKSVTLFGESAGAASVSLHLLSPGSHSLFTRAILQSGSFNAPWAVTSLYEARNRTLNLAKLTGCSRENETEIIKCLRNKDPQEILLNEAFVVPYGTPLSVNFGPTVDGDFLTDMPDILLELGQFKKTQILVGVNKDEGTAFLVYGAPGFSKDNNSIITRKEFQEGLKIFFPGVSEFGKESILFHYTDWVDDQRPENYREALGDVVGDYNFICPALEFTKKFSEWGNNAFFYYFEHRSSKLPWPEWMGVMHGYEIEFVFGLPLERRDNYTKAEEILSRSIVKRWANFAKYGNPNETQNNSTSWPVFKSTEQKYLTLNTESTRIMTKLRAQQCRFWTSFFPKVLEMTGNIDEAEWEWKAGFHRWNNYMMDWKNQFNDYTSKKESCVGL

SMILES: CCN(C)C(=O)Oc1cccc([C@H](C)N(C)C)c1 [RIVASTIGMINE]
- IC50: 2710 nM
